Measured affinities in a library of Ab-14 light chain variants

Target: peptide PDVDLGDISGINAS, taken from heptad repeat 2 (HR2) of SARS-CoV-2 spike.

Parent scFv Ab-14: VH joined to VL by three GGGGS repeats. Changes lie in the light chain CDRs alone.
VH: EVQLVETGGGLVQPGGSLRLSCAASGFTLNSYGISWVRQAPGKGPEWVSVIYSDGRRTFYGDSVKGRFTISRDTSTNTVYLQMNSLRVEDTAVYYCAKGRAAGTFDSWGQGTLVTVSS
VL: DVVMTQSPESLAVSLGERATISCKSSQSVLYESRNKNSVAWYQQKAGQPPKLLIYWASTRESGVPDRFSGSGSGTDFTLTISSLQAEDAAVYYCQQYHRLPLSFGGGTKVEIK

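The parent was found by panning a naive human phage display library on the peptide. The library (AAYL50) carries one to three amino acid substitutions per variant, with no insertions or deletions. The assay is AlphaSeq: two haploid yeast populations carry antibody and antigen on their surface. The frequency of each diploid, read from paired DNA barcodes, reflects how well the two displayed proteins bind. Each replicate has its own calibration line, from reference interactions of the BCL2 family. Mating was done three times.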

Each variant's VL is given in full. All variants listed here change R60 of the VL, counted from its first residue. Scale: log10 of Kd in nM, estimated from mating counts; low values are strong binders. Replicates are averaged; those with no signal do not enter the mean. "nd" marks a missing value. The strain was present, yet no cells mated with the target were sequenced in any replicate, which points to weak or no binding. Background: pairings of library AAYL50 with three empty control strains gave a value in 18% of cases (median 4.19, 5th percentile 2.99). Values in that range, when seen in few replicates, are hard to tell from nonspecific mating. Also given: how often the same scFv was detected with the empty control strains.

The variant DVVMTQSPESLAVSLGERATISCKSSQSVLYESRNKNSVAWYQQKAGQPPKLLIYWASTSESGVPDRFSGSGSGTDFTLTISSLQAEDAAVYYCQQYHNLPLSFGGGTKVEIK showed 2.73 (1 of 3 replicates; controls 2 of 9).
The variant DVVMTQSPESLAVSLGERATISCNSSQSVLYESRNKNSVAWYQQKAGQPPKLLIYWASTYESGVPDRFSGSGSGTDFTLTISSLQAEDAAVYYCQQYHLLPLSFGGGTKVEIK showed nd (0 of 3 replicates; controls 0 of 9).
The variant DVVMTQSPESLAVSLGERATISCKSSQSVLYESYNKNSVAWYQQKAGQPPKLLIYWASTPENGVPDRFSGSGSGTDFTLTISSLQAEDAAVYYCQQYHRLPLSFGGGTKVEIK showed 1.88 (3 of 3 replicates; controls 5 of 9).
The variant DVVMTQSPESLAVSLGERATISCKSSQSVLCESRNKNLVAWYQQKAGQPPKLLIYWASTPESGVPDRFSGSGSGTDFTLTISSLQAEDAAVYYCQQYHRLPLSFGGGTKVEIK showed nd (0 of 3 replicates; controls 0 of 9).
The variant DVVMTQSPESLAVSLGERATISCKSSQSVLYESRNKNKVAWYQQKAGQPPKLLIYWASTSESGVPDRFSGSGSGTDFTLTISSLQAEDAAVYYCQMYHRLPLSFGGGTKVEIK showed 5.79 (1 of 3 replicates; controls 0 of 9).
The variant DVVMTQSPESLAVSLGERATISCKSWQSVLYESRNKNSVAWYQQKAGQPPKLLIYWASTIESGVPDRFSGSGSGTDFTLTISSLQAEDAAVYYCQQYHRLPLPFGGGTKVEIK showed 4.35 (2 of 3 replicates; controls 4 of 9).
The variant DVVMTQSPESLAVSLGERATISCKSSQSVLYESRNANSVAWYQQKAGQPPKLLIYWAKTLESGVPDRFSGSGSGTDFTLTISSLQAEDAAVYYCQQYHRLPLSFGGGTKVEIK showed 1.74 (3 of 3 replicates; controls 2 of 9).
The variant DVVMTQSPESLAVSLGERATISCESSQSVLYESRNKNSKAWYQQKAGQPPKLLIYWASTDESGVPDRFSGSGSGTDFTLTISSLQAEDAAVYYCQQYHRLPLSFGGGTKVEIK showed 3.58 (1 of 3 replicates; controls 1 of 9).
The variant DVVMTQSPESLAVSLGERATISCKSSQSVLYESRNKNSVAWYQQKAGQPPKLLIYWASTVESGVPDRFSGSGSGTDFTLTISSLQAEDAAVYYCQQYTRLPLSFGGGTKVEIK showed 2.98 (2 of 3 replicates; controls 1 of 9).
The variant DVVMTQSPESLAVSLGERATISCKSSQSVLYESRNKNSVAWYQQKAGQPPKLLIYWASTEESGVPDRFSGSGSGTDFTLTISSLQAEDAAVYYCQWYHRLPLSFGGGTKVEIK showed nd (0 of 3 replicates; controls 1 of 9).
The variant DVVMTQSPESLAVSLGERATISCKSSQSVLYESRNKNSVAWYQQKAGQPPKLLIYWASTFESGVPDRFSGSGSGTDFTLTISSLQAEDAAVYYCQQYSRSPLSFGGGTKVEIK showed nd (0 of 3 replicates; controls 0 of 9).
The variant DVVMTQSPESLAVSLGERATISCQSSLSVLYESRNKNSVAWYQQKAGQPPKLLIYWASTDESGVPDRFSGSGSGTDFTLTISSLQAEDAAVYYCQQYHRLPLSFGGGTKVEIK showed 4.04 (3 of 3 replicates; controls 3 of 9).
The variant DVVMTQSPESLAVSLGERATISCKSSQSVLYESRNVNSVAWYQQKAGQPPKLLIYWASTWESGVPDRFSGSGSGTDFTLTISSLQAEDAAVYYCQQYHRLPLSFGGGTKVEIK showed 3.28 (2 of 3 replicates; controls 0 of 9).
The variant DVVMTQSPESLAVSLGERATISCKSSQSVLYESRNKNSALWYQQKAGQPPKLLIYWASTPESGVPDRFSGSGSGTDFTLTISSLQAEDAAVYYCQQYHRLPLSFGGGTKVEIK showed 4.27 (2 of 3 replicates; controls 8 of 9).
The variant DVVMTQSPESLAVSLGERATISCKSSQSVLYESRNKNSVAWYQQKAGQPPKLLIYHASTHESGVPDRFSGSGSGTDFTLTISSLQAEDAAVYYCQQYHRLFLSFGGGTKVEIK showed 4.78 (1 of 3 replicates; controls 0 of 9).
The variant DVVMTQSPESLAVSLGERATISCKSSQKVLYEMRNKNSVAWYQQKAGQPPKLLIYWASTMESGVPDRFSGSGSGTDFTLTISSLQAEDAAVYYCQQYHRLPLSFGGGTKVEIK showed 4.07 (1 of 3 replicates; controls 0 of 9).

The first 2 variants above that were never detected:

VL	log10 Kd (nM), mean	replicates with signal	signal with controls
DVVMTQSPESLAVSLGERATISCNSSQSVLYESRNKNSVAWYQQKAGQPPKLLIYWASTYESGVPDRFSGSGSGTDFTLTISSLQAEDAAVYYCQQYHLLPLSFGGGTKVEIK	nd	0/3	0/9
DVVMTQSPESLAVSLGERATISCKSSQSVLCESRNKNLVAWYQQKAGQPPKLLIYWASTPESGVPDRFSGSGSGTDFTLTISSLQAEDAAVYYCQQYHRLPLSFGGGTKVEIK	nd	0/3	0/9

Reference: Engelhart et al. 2022, doi:10.1038/s41597-022-01779-4. File: FLAb, binding data.